Values quoted from earlier work as cited in article PMC8796384, “Plasma protein binding prediction focusing on residue-level features and circularity of cyclic peptides by deep learning” (Bioinformatics, 2021).

Experiments:
[1] = test system: plasma proteins
[2] = test system: plasma proteins; details: whole-peptide descriptor model trained on small molecules; ref Tajimi et al. (2018)

Substance	Exp. %PPB (PPB rate) ([1]; experimental plasma protein binding rate, ref Schneider et al. (2017))	predicted %PPB value by Tajimi [2]	%PPB50-95 ([1]; experimental %PPB, below 50% rounded to 50%, above 95% rounded to 95%, DrugBank dataset collected by Tajimi et al. (2018), ref Wishart et al., 2018)
acetyl-daptomycin	12%	18%	–
daptomycin	–	–	91.5%
